The record followed here is paper PMC5927803 (Pharmacology Research & Perspectives, 2018).

The test system of this assay is rat isolated tracheal tissue. Kind of assay: Antagonism of ACh-evoked contraction: potency and offset time. Conditions: ACh concentration-response curve.

In the case of `CC(C)[N+]1(C)[C@@H]2CC[C@H]1C[C@@H](OC(=O)C(CO)c1ccccc1)C2` (stereo partly shown) [Ipratropium, reference compound], the nature of antagonism entry is “surmountable antagonist”.
